Compound activity as filed in PubChem BioAssay.
Only some compounds are listed: those with a hit (about 2.1% of all), similar ones and a draw of the others.
TSG101-PTAP inh: blocks PTAP/TSG101 interaction to inhibit HIV-1 budding. Potency, µM (series often up to 115 µM), for inactives: at the top dose activity change, negative = inhibition, actives largely listed as inhibitors. 340,000 tested, under 10 active. Q99816. Fluorescence polarization, FITC-PTAP peptide / Tsg101 binding; active = well fitted inhibition curve with a large enough effect in the main read-out, with a control signal flat, not every such curve was filed as active; inconclusive = small, poorly fitted or top-dose-only effect, or effect the other way, or a change in a side signal; inactive = no such curve, though single readings can be large or run the other way; also: potency is read from the fitted curve at half-maximal effect; % of control where 0% means no effect
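Fluorescence polarization binding of Tsg101 binding domain (10 uM final) to FITC-labeled PTAP peptide (50 nM final) in HEPES pH 7.5 buffer with NaCl, Tween 20, EDTA, TCEP. Compounds added before peptide; binding 20 min at RT.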
GRP78 ERSR act: inducers of ER stress response in human glioma cells | AID 602332 | 420,000 compounds, 0.02% hits | U87-MG GRP78 promoter luciferase reporter, 16 h | Potency, µM, for the others: top-dose activation, actives largely listed as activators; also: potency is read from the fitted curve at half-maximal effect; series mostly up to about 76 µM; % of control where 0% means no effect; nearly all actives have a fitted effect of over 35% in size
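Stably transfected U87-MG glioma cells carrying a GRP78-based luciferase sensor; 16 h compound incubation. Luminescence end-point read 10 min after Bright-Glo addition at room temperature.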
miR-21 reporter: miR-21 reporter, rising signal | HeLa miR-21 FLuc reporter, luciferase, 48 h | Potency, µM (top dose mostly 38.3 µM), inactives show at the top dose reporter change, positive = more light | 340,000 tested, under 10 active | AID 2288; active = well fitted rising curve with a large enough effect; inconclusive = small, poorly fitted or top-dose-only effect; inactive = no such curve, though single readings can be large or run the other way;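 further: % of control where 0% means no effect; miR-21 action dims this reporter so a rising signal means less miR-21 action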
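Using DMEM plus 10% FBS, HeLa miR-21-FLuc cells are incubated with test compounds (final up to about 40uM) for 48 hours; firefly luciferase signal is then imaged following reagent-mediated lysis.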
Nrf2 inh: Nrf2 pathway inhibition. A549 ARE-Fluc reporter, luciferase luminescence, 18-24 h. Potency, µM (top dose mostly 46 µM), without a hit: top-dose activity change, negative = inhibition, hits mostly inhibitors. 360,000 compounds, 2.1% hits; also: potency is read from the fitted curve at half-maximal effect; % is scaled to controls: 0 for no effect and ±100 for the full control effect; nearly all actives have a fitted effect of over 60% in size
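Concentration-response testing used A549 ARE_Fluc cells at 5000 cells/well. Following an 18-24 h compound incubation, viability was read by fluorescence (Ex 405/Em 525) and luciferase output by luminescence.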
A549 tox: kills or reduces viability of A549 cells in Nrf2 counter-screen; A549 ARE-Fluc cells, CellTiter-Fluor viability, 18-24 h; Potency, µM (titrated, usually from 46 µM), for inactives: at the top dose activity change, negative = cytotoxicity, most hits filed as inhibitors; 390,000 compounds, 0.16% hits; AID 504648; also: potency is read from the fitted curve at half-maximal effect; % is scaled to controls: 0 for no effect and ±100 for the full control effect
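A549 ARE_Fluc cells in 5% FBS OPTI-MEM were exposed to compounds in concentration-response for 18-24 h at 37 deg C. Viability was read by CellTiter-Fluor fluorescence (Ex 405/Em 525) after 30 min, before the luciferase read.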
Nrf2 activator: activators of Nrf2 (ARE) signaling. AID 624171. Potency, µM (highest dose often 46.1 µM), for inactives: at the top dose activation, hits mostly activators. 410,000 compounds, 0.31% hits. AREc32 ARE-luciferase reporter (MCF7-derived line), luminescence, 24 h; also: potency is read from the fitted curve at half-maximal effect; % of control where 0% means no effect; nearly all actives have a fitted effect of over 65% in size
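AREc32 cells carrying an ARE-driven firefly luciferase, 1000 cells/well in OPTI-MEM with 5% FBS, dosed after overnight attachment and incubated 24 hr at 37 deg C. Steady-Glo luminescence read after 30 min at RT.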
Active calls of the source: *; ? = inconclusive; . = not tested or not shown. Unless noted, calls follow the shape of the dose curve; as a rule, active = well fitted curve in the direction sought with a large enough effect; inconclusive = small, poorly fitted or top-dose-only effect, or another doubt; inactive = no such curve, though single readings can be large; an effect the other way counts as inactive or inconclusive.

smiles	TSG101-PTAP inh	GRP78 ERSR act	miR-21 reporter	Nrf2 inh	A549 tox	Nrf2 activator
O=C(CSc1nc(-c2ccc(Cl)cc2)cs1)Nc1cccc([N+](=O)[O-])c1	-2%	3%	21%	16µM*	-21%	19%
CC(=O)N1N=C(c2ccccc2)OC12CCCC2	-4%	-4%	0%	7%	2%	-1%
CC(=O)N1N=C(c2ccc(Br)cc2)OC1(C)CC(=O)Nc1ccccc1 (configuration not stated)	0%	-4%	18%	23µM*	?	1%
CC(C)NS(=O)(=O)c1cc(C(F)(F)F)ccc1/C=C/C(=O)O	.	-3%	.	.	.	.
CC1CCN(c2ccc3c(c2)S(=O)(=O)c2cccc(C(=O)NC[C@@H]4CCCO4)c2C3=O)CC1	4%	12%	.	9%	-9%	0%
O=C(NCC1CCCO1)c1cccc2c1C(=O)c1ccc(N3CCC(Cc4ccccc4)CC3)cc1S2(=O)=O (configuration not stated)	?	-6%	.	21µM*	-8%	-2%
O=C(CNC(=O)c1ccc([N+](=O)[O-])cc1)OC(C(=O)Nc1cc(C(F)(F)F)ccc1Cl)c1ccccc1 (configuration not stated)	.	.	.	-13%	3%	.
Cc1ccc(S(=O)(=O)N(C)C)cc1NC(=O)c1cc(C(C)(C)C)nn1Cc1ccccc1	-6%	-4%	11%	10µM*	5%	2%
Cc1ccc(S(=O)(=O)N(C)C)cc1NC(=O)CN1CCN(Cc2ccccc2)CC1	-2%	1%	-1%	-7%	2%	0%
CC(=O)O[C@]1(C(=O)CO)[C@@H](C)C[C@H]2[C@@H]3CCC4=CC(=O)C=C[C@]4(C)[C@@]3(F)[C@@H](O)C[C@]21C	.	-3%	.	.	.	.
COc1cccc(-c2cc(C(F)(F)F)nc(-n3cc(Cl)cn3)n2)c1	-4%	2%	-6%	10µM*	1%	0%
COc1ccc(-c2cc(C(F)(F)F)nc(-n3cc(Cl)cn3)n2)cc1	-7%	1%	-9%	?	?	1%

smiles	TSG101-PTAP inh	GRP78 ERSR act	miR-21 reporter	Nrf2 inh	A549 tox	Nrf2 activator
CCOC(=O)c1cc(-c2cccnc2)nn1-c1ccccc1	0%	-1%	-1%	12µM*	2%	4%
CC[n+]1ccnc2ccccc21	.	-9%	.	.	.	.
Cc1sc(NC(=O)c2ccc(OCC(C)C)cc2)c(C(N)=O)c1-c1ccc(Cl)cc1Cl	0%	-2%	-4%	18µM*	-9%	3%
CCCOc1ccc(C(=O)Nc2cccc(NC(=O)c3ccc(Cl)cc3Cl)c2)cc1	.	-4%	-20%	-21%	-9%	0%
C#CCN(Cc1ccc(OC)cc1)S(=O)(=O)C=C	.	-9%	.	.	.	.
Cc1cc(C)cc(C(=O)Nc2ccc(NC(=O)c3cccs3)cc2)c1	1%	3%	12%	18µM*	?	4%
O=C(Nc1cccc(-c2csc(-c3ccccc3)n2)c1)c1cccs1	-5%	4%	12%	16µM*	0%	4%
O=C(NCc1ccco1)Nc1ccc(Br)cc1	-1%	3%	-38%	-16%	-19%	6%
O=C(Nc1ccncc1)c1cccs1	-1%	0%	7%	8%	-5%	1%
Cc1nc(-c2cccc(NC(=O)c3cccs3)c2)cs1	1%	3%	-30%	-13%	-12%	?
O=C(Nc1ccc2nsnc2c1)c1cccs1	-8%	1%	-15%	5%	-6%	8.9µM*
O=C(NCc1ccco1)Nc1ccc2nsnc2c1	0%	-17%	-1%	4%	-13%	22µM*
Cc1ccccc1C(=O)N1CC/C(=N/OS(=O)(=O)O)c2ccc(Cl)cc21	.	-4%	.	.	.	.
COc1cccc(CC(=O)NCC2Cc3cc(Cl)cc(-c4ncccn4)c3O2)c1 (configuration not stated)	.	-8%	.	.	.	.
O=C(Nc1cccc(NC(=O)c2cccs2)c1)c1cccnc1	-7%	0%	-1%	1%	-1%	13µM*
